# This is a selection; strong and weak results do not stand in their true shares. The source made the active and inactive calls.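 The calls were made as follows: active = plate Z-score above 3 for both tubulin-high and condensed-nucleus cell shares, with cell loss under 80%, at 10 µM; inactive = the rest, inconclusive results apart.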
# Assay: microtubule stabilizers in HeLa cells, primary screen, imaging, high-content imaging (AID 2205)
# Conditions: HeLa tubulin immunostaining HCS, 24 h; at 10 µM; stronger effect = higher value; share of cells brighter than vehicle mean+2SD
row,Compound,% tubulin-high responders
1,N/C(=N\O)c1c(N)no[n+]1[O-],inactive: 5.1%
2,O=C(OC1CN2CCC1CC2)C1c2ccccc2C=Cc2ccccc21 (stereo not given),inactive: 4.18%
3,COc1ccc(C(=O)NCC2(N3CCOCC3)CCCCC2)cc1OC,inactive: 1.45%
4,c1ccc(CN2CCC(Nc3ccccc3)CC2)cc1,inactive: 3.27%
5,N#Cc1ccc(C(=O)NCC2(N3CCCCC3)CCCCC2)cc1,inactive: 1.41%
6,CCN1CCC(Nc2cccc(F)c2)CC1,inactive: 1.78%
7,CN(C)c1ccc(C(=O)NCC2(N3CCCCC3)CCCCC2)cc1,inactive: 2.21%
8,CCC(CO)(C(=O)OC1CN2CCC1CC2)c1ccccc1 (stereo not given),inactive: 6.24%
9,COc1cc(OC)cc(C(=O)NCC2(N3CCOCC3)CCCCC2)c1,inactive: 3.76%
10,CCOc1ncccc1C(=O)NCC1(N2CCOCC2)CCCCC1,inactive: 3.73%
11,CC(C)(C)OC(=O)N1CCC(Nc2ccccc2)CC1,inactive: 5.5%
12,O=C(NCC1(N2CCOCC2)CCCCC1)c1cc2ccccc2o1,inactive: 3.32%
13,CCOC(=O)N1CCC(Nc2ccc(OC)cc2)CC1,inactive: 4.83%
14,O=C(OC1CN2CCC1CC2)C1c2ccccc2Oc2ccccc21 (stereo not given),inactive: 6.64%
15,COc1ccc(C(=O)NCC2(N3CCCCC3)CCCCC2)c(OC)c1OC,inactive: 1.09%
16,COc1ccc(NC2CCN(CCc3ccccc3)CC2)c(OC)c1,inactive: 3.2%
17,COc1ccc(NC2CCN(C(=O)OC(C)(C)C)CC2)cc1,inactive: 1.94%
18,CN1CCN(CCOC(=O)C(O)(c2ccccc2)c2ccccc2)CC1,inactive: 2.39%
19,O=C(NCC1(N2CCOCC2)CCCCC1)c1cc(=O)[nH]c2ccccc12,inactive: 2.47%
20,O=C(NCC1(N2CCCCC2)CCCCC1)c1cccc([N+](=O)[O-])c1,inactive: 1.62%
21,N#CC1(Nc2ccccc2)CCN(CCc2ccccc2)CC1,inactive: 2.69%
22,CN1CCC(Nc2cccc(F)c2)CC1,inactive: 1.19%
23,CN(C)c1cccc(C(=O)NCC2(N3CCCCC3)CCCCC2)c1,inactive: 2.97%
24,COc1ccc(CN(CCCl)CCCl)cc1Cl,inactive: 3.31%
25,CC(C)c1ccc(NC2CCN(C(=O)OC(C)(C)C)CC2)cc1,inactive: 1.82%

# Reference: PubChem BioAssay AID2205 (University of Pittsburgh Molecular Library Screening Center, 2009)
